Results on 60 molecules are retold here after PubChem BioAssay AID651999 (Sanford-Burnham Center for Chemical Genomics, 2013).

Chains of the proteins cited; added tags and fusions are not shown.
UniProt Q92905, whole entry: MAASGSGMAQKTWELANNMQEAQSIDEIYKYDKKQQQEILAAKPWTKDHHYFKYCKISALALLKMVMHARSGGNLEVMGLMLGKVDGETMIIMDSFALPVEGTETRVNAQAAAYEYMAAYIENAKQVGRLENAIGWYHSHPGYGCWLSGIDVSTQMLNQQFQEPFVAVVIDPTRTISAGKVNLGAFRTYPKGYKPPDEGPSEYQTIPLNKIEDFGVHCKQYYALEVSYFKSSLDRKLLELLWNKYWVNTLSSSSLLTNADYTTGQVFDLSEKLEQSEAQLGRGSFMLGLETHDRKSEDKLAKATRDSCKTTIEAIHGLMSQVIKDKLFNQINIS

What is called inhibition is the change of the read-out against control, counted positive when it falls.

Each structure is given as a SMILES string. The list shows a part of the results, in another mix than the full data. The source made the active and inactive calls.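 Rule for the calls: active = pattern-corrected inhibition above about 35%, with an unprinted fluorescence ratio check between 0.5 and 1.5 (limit read from the data, passing the limit was not always enough); inactive = the rest.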

The assay deals with COP9 signalosome complex subunit 5 (Homo sapiens) (UniProt Q92905). Nature of the assay: inhibitors of CSN-mediated cullin deneddylation, primary screen, biochemical, fluorescence polarization, uHTS (AID 651999).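 Note: 0% = enzyme with substrate and 100% = substrate without enzyme.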 Particulars: Purified CSN, SCF-Nedd8-OG deneddylation, at 12.5 µM, hits give high values. Summed up:
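Assay system: Purified human Csn5 enzyme expressed in HEK293T cells | Amount: Enzyme 0.24 nM | Measured by: Fluorescence polarization readout | Medium: Tris/NaCl/DTT buffer, pH 7.5 | Compound dosing: One concentration, 12.5 µM, 0.25% DMSO | Times: 90 min incubation of compound, enzyme and substrate at room temperature | Control set: no-enzyme wells high, enzyme-with-substrate wells low | Read-out: % inhibition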
Background: In fluorescence polarisation assays a small probe gives low polarisation when free and higher when bound to something large.
Take `COc1cc(C(=O)NCC2(N3CCCCC3)CCCCC2)ccc1OC(F)F`: the inhibition was inactive: 1.6%.
`O=C(NCC1(N2CCOCC2)CCCCC1)c1cc(=O)[nH]c2ccccc12`: the inhibition is inactive: 5.86%.
To `CN1CCN(CCOC(=O)C(O)(c2ccccc2)c2ccccc2)CC1` belongs inactive: -9.7%.
Turning to `CC(C)c1ccc(C(=O)NCC2(N3CCOCC3)CCCCC2)cc1`, the inhibition was inactive: 2.36%.
To `COc1ccc(NC2CCN(C(=O)OC(C)(C)C)CC2)cc1` belongs inactive: 8.79%; to `CCCCn1nnnc1C(c1cccc2ccccc12)N1CCC(n2c(=O)[nH]c3ccccc32)CC1` (stereo not given), inactive: 1.04%.
To `O=C(NCC1(N2CCCCC2)CCCCC1)c1cccc(C(F)(F)F)c1` belongs inactive: -0.01%.
`CCN1CCC(Nc2ccc(Cl)cc2)CC1`: the inhibition is inactive: 1.12%.
With `O=c1[nH]c2ccccc2n1C1CCN(C(c2ccccc2OC(F)(F)F)c2nnnn2C2CCCC2)CC1` (stereo not given) the figure was inactive: -6.01%.
For the molecule `N#CC1(Nc2ccccc2)CCN(CCc2ccccc2)CC1`, the inhibition was inactive: 1.21%.
`O=C(NCC1(N2CCCCC2)CCCCC1)c1cccc([N+](=O)[O-])c1`: the inhibition was inactive: 4.8%.
With `CSc1ccc(C(=O)NCC2(N3CCOCC3)CCCCC2)cc1`, the inhibition was inactive: 0.73%.
Turning to `CC(C)(C)n1nnnc1C(c1ccccc1OC(F)(F)F)N1CCC(n2c(=O)[nH]c3ccccc32)CC1` (stereo not given), the inhibition is inactive: -3.27%.
To `O=C(NCC1(N2CCCCC2)CCCCC1)c1ccc(OC(F)F)cc1` belongs inactive: -2.92%; to `COc1ccc(C(c2nnnn2C2CCCC2)N2CCC(n3c(=O)[nH]c4ccccc43)CC2)cc1` (stereo not given), inactive: 3.7%; to `Cc1ccc(C(=O)NCC2(N(C)C)CCCCC2)o1`, inactive: -2.81%.
To `CCCOc1ccc(C(=O)NCC2(N(C)C)CCCCC2)cc1OC` belongs inactive: 0.56%.
Consider `CN1CCC(Nc2cccc(F)c2)CC1`, for which the inhibition is inactive: -2.85%.
For the molecule `O=C(NCC1(N2CCCCC2)CCCCC1)c1cncc(Br)c1`, the inhibition was inactive: -2.66%.
With `COc1cc(OC)c(C(=O)NCC2(N(C)C)CCCCC2)cc1OC` the figure was inactive: 0.74%; with `O=C(NCC1(N2CCOCC2)CCCCC1)c1cc(F)c(F)cc1Cl`, inactive: -4%; with `CCC(c1nnnn1C(C)(C)C)N1CCC(n2c(=O)[nH]c3ccccc32)CC1` (stereo not given), inactive: -0.81%.
As for `CCCCn1nnnc1C(c1ccnc2ccccc12)N1CCC(n2c(=O)[nH]c3ccccc32)CC1` (stereo not given), the inhibition is inactive: -5.43%.
With `CCCCn1nnnc1C(c1ccccc1OC(F)(F)F)N1CCC(n2c(=O)[nH]c3ccccc32)CC1` (stereo not given) the figure was inactive: -1.87%; with `CC(C)c1ccc(NC2CCN(C(=O)OC(C)(C)C)CC2)cc1`, inactive: -3.33%.
Take `COc1ccc(CN(CCCl)CCCl)cc1Cl`: the inhibition is inactive: -4.82%.
With `CN(C)c1cccc(C(=O)NCC2(N3CCCCC3)CCCCC2)c1`, the inhibition was inactive: 3.28%.
To `O=C(NCC1(N2CCCCC2)CCCCC1)c1ccc(Cl)s1` belongs inactive: 3.9%; to `N#CC1(Nc2ccccc2)CCN(Cc2ccccc2)CC1`, inactive: 2.06%.
With `O=C(OC1CN2CCC1CC2)C1c2ccccc2Oc2ccccc21` (stereo not given) the figure was inactive: -7.31%; with `O=c1[nH]c2ccccc2n1C1CCN(C(c2cc3ccccc3o2)c2nnnn2C2CCCCC2)CC1` (stereo not given), inactive: 2.88%.
With `COc1ccc(Cl)cc1C(=O)NCC1(N2CCOCC2)CCCCC1` the figure was inactive: -5.2%; with `CCOC(=O)N1CCC(Nc2ccc(OC)cc2)CC1`, inactive: -0.72%; with `CCCCn1nnnc1C(c1ccc(OC)cc1)N1CCC(n2c(=O)[nH]c3ccccc32)CC1` (stereo not given), inactive: -2.7%.
Take `O=C(NCC1(N2CCCCC2)CCCCC1)c1ccc(Cl)nc1`: the inhibition is inactive: 1.62%.
With `O=c1[nH]c2ccccc2n1C1CCN(C(c2ccccc2OC(F)(F)F)c2nnnn2C2CCCCC2)CC1` (stereo not given) the figure was inactive: 0.64%.
To `Cc1cc(C)cc(N(C(=O)c2ccccc2)C2CCN(C(=O)OC(C)(C)C)CC2)c1` belongs inactive: 1.13%; to `O=C(NCC1(N2CCOCC2)CCCCC1)c1cc2ccccc2o1`, inactive: 3.82%; to `CSc1ccccc1C(=O)NCC1(N2CCCCC2)CCCCC1`, inactive: 4.42%.
Take `Cc1cccc(NC2(C#N)CCN(Cc3ccccc3)CC2)c1`: the inhibition was inactive: -4.27%.
Take `COc1ccc(C(=O)NCC2(N3CCCCC3)CCCCC2)cc1`: the inhibition is inactive: 4.14%.
With `CC(C)(C)OC(=O)N1CCC(N(C(=O)c2ccccc2)c2ccc(F)cc2)CC1` the figure was inactive: 8.64%; with `COc1ccc(C(=O)NCC2(N3CCCCC3)CCCCC2)c(OC)c1OC`, inactive: 4.1%; with `CCC(c1nnnn1C1CCCC1)N1CCC(n2c(=O)[nH]c3ccccc32)CC1` (stereo not given), inactive: -0.77%.
With `O=C(NCC1(N2CCCCC2)CCCCC1)c1ccc(=O)[nH]c1` the figure was inactive: 3.91%.
To `O=C(NCC1(N2CCCCC2)CCCCC1)c1cccs1` belongs inactive: 5.46%; to `CCCCn1nnnc1C(CC)N1CCC(n2c(=O)[nH]c3ccccc32)CC1` (stereo not given), inactive: 4.62%.
Take `CCCCn1nnnc1C(c1cccs1)N1CCC(n2c(=O)[nH]c3ccccc32)CC1` (stereo not given): the inhibition was inactive: 12.5%.
To `CCOC(=O)N1CCC(Nc2cccc(C)c2)CC1` belongs inactive: 1.53%; to `COc1cc(C(=O)NCC2(N(C)C)CCCCC2)ccc1OC(F)F`, inactive: 0.44%; to `O=c1[nH]c2ccccc2n1C1CCN(C(c2cccc3ccccc23)c2nnnn2C2CCCC2)CC1` (stereo not given), active: 133%.
In the case of `O=c1[nH]c2ccccc2n1C1CCN(C(c2ccccc2)c2nnnn2C2CCCCC2)CC1` (stereo not given), the inhibition was inactive: -2.19%.
With `CCCCn1nnnc1C(c1cc2ccccc2o1)N1CCC(n2c(=O)[nH]c3ccccc32)CC1` (stereo not given) the figure was inactive: 1.18%; with `O=P1(N(CCCl)CCCl)SCCCS1`, inactive: -2.18%; with `CCCCOc1ccc(C(=O)NCC2(N3CCOCC3)CCCCC2)cc1`, inactive: 0.02%.
Regarding `O=C(NCC1(N2CCCCC2)CCCCC1)c1ccc(F)cc1`, the inhibition is inactive: 1.51%.
For the molecule `COc1ccc(NC2CCN(CCc3ccccc3)CC2)c(OC)c1`, the inhibition was inactive: -1.42%.
To `CCOC(=O)N1CCC(Nc2ccc(F)cc2)CC1` belongs inactive: -4.04%.
Consider `CC(C)(C)n1nnnc1C(c1ccccc1)N1CCC(n2c(=O)[nH]c3ccccc32)CC1` (stereo not given), for which the inhibition is inactive: -2.98%.
With `O=C1CCN(Cc2ccccc2)CC1` the figure was inactive: 5.01%.
